The list shows a part of the results, in another mix than the full data. Calls of active or inactive are those of the source. Calls come from the whole dose curve; as a rule, active = well fitted curve in the direction sought with a large enough effect; inactive = no such curve, though single readings can be large or run the other way.

Protein sequences, listed by entry. Tags and fused reporters are not part of them. Lines headed by an entry give the natural chain unless they say otherwise; changes in a name come on top.
UniProt P06280: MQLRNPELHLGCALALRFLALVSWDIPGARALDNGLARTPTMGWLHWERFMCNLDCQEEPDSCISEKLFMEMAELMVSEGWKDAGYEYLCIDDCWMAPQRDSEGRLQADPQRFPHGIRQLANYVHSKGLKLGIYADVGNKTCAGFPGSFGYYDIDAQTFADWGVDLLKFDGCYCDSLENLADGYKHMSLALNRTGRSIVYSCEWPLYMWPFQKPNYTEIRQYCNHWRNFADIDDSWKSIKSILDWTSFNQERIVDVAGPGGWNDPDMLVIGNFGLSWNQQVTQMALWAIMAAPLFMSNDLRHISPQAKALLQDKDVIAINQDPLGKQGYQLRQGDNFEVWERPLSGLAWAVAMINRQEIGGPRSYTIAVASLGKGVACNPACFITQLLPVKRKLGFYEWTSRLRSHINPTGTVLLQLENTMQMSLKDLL

We go through 4 compounds from PubChem BioAssay AID998 (National Center for Advancing Translational Sciences (NCATS), 2007).

This assay deals with Alpha-galactosidase A (Homo sapiens) (UniProt P06280). Description: Counterscreen for Glucocerebrosidase Inhibitors: qHTS Assay for Coffee Bean alpha-Galactosidase at pH 5.9.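 Note: plate controls were uninhibited enzyme for no effect and no-enzyme basal signal for full effect.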 The following applies: coffee bean alpha-galactosidase enzyme assay; at 76.9 µM (top of the series). The source says: NIH Chemical Genomics Center [NCGC]
NIH Molecular Libraries Screening Centers Network [MLSCN]
PI Name: Zheng, Wei [NIH]
Alpha-galactosidase is a homodimeric glycoprotein that hydrolyzes the terminal alpha-galactosyl moieties from glycolipids and glycoproteins. Deficiency of this enzyme results in Fabry Disease with progressive accumulation of globotriaosylceramide and other glycosphingolipids in vascular endothelial cells that causes renal failure, myocardial infarction and stroke, and premature death in patients. It has reported that the improper folding and trafficking of alpha-galactosidase resulted from the genetic mutations may account for a significant numbers of Fabry patients. […] We optimized this coffee bean alpha-galactosidase assay in 1536-well plate format as a counter-screen assay for identifying the selective small molecule inhibitors of other lysosomal enzymes.
NCGC Assay Protocol Summary:
This is a fluorogenic enzyme assay with 4-Methylumbelliferyl alpha-D-galactopyranoside as the substrate and green coffee bean alpha-glucosidase (from Sigma-Aldrich) as the enzyme preparation. Upon the hydrolysis of this fluorogenic substrate, the resulting product, […]. 4-Methyllumbelliferone, can be excited at 365 nm and emits at 440 nm which can be detected by a standard fluorescence plate reader. Data were normalized to the controls for basal activity (without enzyme) and 100% activity (with enzyme). In the AC50 values were determined from concentration-response data modeled with the standard Hill equation.
Assay buffer: 50 mM citric acid, 0.005% Tween-20, pH 5.9. (pH 5.9 is an optimal condition for this enzyme assay.)
1536-well assay protocol for the coffee bean alpha-galactosidase:
(1) Add 2 ul/well of enzyme (2 nM final)
(2) Add 23 nL compounds in DMSO solution. The final titration was 0.7 nM to 77 uM.
(3) Add 1 ul of substrate (80 uM final)
(4) Incubate at room temperature for 20 min.
(5) Add 2 ul stop solution (1M NaOH and 1M Glycine mixture, pH 10)
(6) Detect the assay plate in a ViewLux plate reader (PerkinElmer) with Ex=365 nm and Em=440nm.
Keywords: Alpha-galactosidase, Fabry Disease, pharmacological chaperone, chaperone therapy, high throughput screening, alpha-galactosidase inhibitor, MLSMR, MLSCN, NIH Roadmap, qHTS and NCGC
For orientation: A counterscreen serves to expose hits that act by an unwanted route or on another target.
For `CN(CCCl)Cc1cc(Cl)c(NC2=NCCN2)c(Cl)c1`, the activity, negative = inhibition is inactive: -1.62%.
For `CN(C(=O)Cc1ccccc1)[C@@H]1CC[C@@]2(CCCO2)C[C@H]1N1CCCC1`, the activity, negative = inhibition was inactive: -1.73%.
Regarding `CN(C(=O)Cc1ccc(Cl)c(Cl)c1)[C@@H]1CC[C@@]2(CCCO2)C[C@H]1N1CCCC1`, the activity, negative = inhibition was inactive: -1.08%.
With `CN(C(=O)Cc1ccc(Cl)c(Cl)c1)[C@@H]1CCCC[C@H]1N1CCCC1`, the activity, negative = inhibition is inactive: -2.64% [middle of 4 runs].
